Test results taken from patent US4760201A (Exxon Research & Engineering Co., priority 1986, dated 1988).

Tests used:
[1] = Batch extraction of sec-butyl alcohol (SBA) from acid/alcohol feedstream by aliphatic acids; SBA in light phase; assay type: physicochemical; details: Table 9, vol:vol 1.0:1, AS 56.7%, ES 0.5
Excerpt: Thereafter, the thus-formed acid/alcohol […] contacted with the selected amount of a carboxylic acid solvent of this invention, and the results thereby obtained are reported in the associated tables below.

[2] = Solubility of neodecanoic acid in SBOH extracts (heavy layer); details: 25° C.
[3] = Protocol: The liquids thus passed to the extraction unit were preheated each to a temperature of 60° C. The reciprocating plate column was provided with a hot water heating jacket maintained at 60° C. […] The liquids thereby accumulated were each analyzed by gas chromatography and nuclear magnetic resonance spectroscopy (NMR) for component identification.
[4] = Break time for forming liquid-liquid interface, neo-decanoic acid extract phase / sulfuric acid phase; details: 60° C.
[5] = Effect of acid strength on SBA removal by neodecanoic acid and regenerated olefin; assay type: physicochemical; details: for Light Phase SBA / Regenerated Olefin C4=/SBA: ES 1.0, 1:1 v/v
[6] = Effect of solvent/feed ratio on selectivity of extraction (H2O/SBA in upper layer); details: 25° C., AS 56.7%, ES 0.5
[7] = Partitioning of alcohol into neodecanoic acid from sulfuric acid/alcohol feedstreams (Examples 14-21); details: for Light Phase H2O / Light Phase SBOH: AS 60%, 60° C.
[8] = Comparative runs: partitioning of SBOH and water into neodecanoic acid from aqueous sec-butanol free of sulfuric acid
[9] = Example 14, ES 0.2, NDA/SBOH 15.6
[10] = Example 15, ES 0.2, NDA/SBOH 3.9
[11] = Example 16, ES 0.2, NDA/SBOH 7.9
[12] = Example 17, ES 0.2, NDA/SBOH 23.2
[13] = Example 18, ES 0.2, NDA/SBOH 4.7
[14] = Example 19, ES 1.0, NDA/SBOH 1.3
[15] = Example 20, ES 1.0, NDA/SBOH 2.6
[16] = Example 21, ES 1.0, NDA/SBOH 7.9
[17] = Comparative Example I, 25° C., start SBOH 47.8 wt %
[18] = Comparative Example II, 25° C., start SBOH 7.3 wt %
[19] = Comparative Example III, 25° C., start SBOH 63.9 wt %
[20] = Comparative Example IV, 25° C., start SBOH 13.9 wt %
[21] = Comparative Example IX, 60° C., start SBOH 28.3 wt %
[22] = Comparative Example V, 60° C., start SBOH 45.3 wt %
[23] = Comparative Example VI, 60° C., start SBOH 7.4 wt %
[24] = Comparative Example VII, 60° C., start SBOH 61.7 wt %
[25] = Comparative Example VIII, 60° C., start SBOH 13.5 wt %

SBA in Light Phase ([1]; 25 °C): 4.04 wt. %
SBA in Light Phase ([1]; 60 °C): 6.44 wt. %
Neodecanoic Acid in Heavy Layer (solubility) ([2]; Sample 1, AS 56.7%, E.S. 0): Not detectable
Neodecanoic Acid in Heavy Layer (solubility) ([2]; Sample 2, AS 56.7%, E.S. 0.1): < 10 ppm by weight
Neodecanoic Acid in Heavy Layer (solubility) ([2]; Sample 3, AS 56.7%, E.S. 0.2): 17 ppm by weight
Neodecanoic Acid in Heavy Layer (solubility) ([2]; Sample 4, AS 56.7%, E.S. 0.3): 157 ppm by weight
Neodecanoic Acid in Heavy Layer (solubility) ([2]; Sample 5, AS 56.7%, E.S. 0.4): 364 ppm by weight
Neodecanoic Acid in Heavy Layer (solubility) ([2]; Sample 6, AS 56.7%, E.S. 0.5): 571 ppm by weight
Neodecanoic Acid in Heavy Layer (solubility) ([2]; Sample 7, AS 56.7%, E.S. 1.0): 4776 ppm by weight
Neodecanoic Acid in Heavy Layer (solubility) ([2]; Sample 8, AS 67.0%, E.S. 0): 9 ppm by weight
Neodecanoic Acid in Heavy Layer (solubility) ([2]; Sample 9, AS 67.0%, E.S. 0.2): 785 ppm by weight
Neodecanoic Acid in Heavy Layer (solubility) ([2]; Sample 10, AS 67.0%, E.S. 0.6): 1855 ppm by weight
Neodecanoic Acid in Heavy Layer (solubility) ([2]; Sample 11, AS 67.0%, E.S. 1.0): 9887 ppm by weight
Overall Partition Coefficients, Wt. Fract. (concentration in light phase / in heavy phase) [3]: 902.5
acid strength of the heavy phase after extraction ([3]; Example 1, feedstream 55-percent acid strength, 60° C.): 60%
Breaktime ([4]; Run 1-A, A.S. 55%, E.S. 0.51, feed 60, NDA 40 vol. %): 170 s
Breaktime ([4]; Run 1-B, A.S. 55%, E.S. 0.51, feed 40, NDA 60 vol. %): 120 s
Breaktime ([4]; Run 2-A, A.S. 55%, E.S. 0.97, feed 60, NDA 40 vol. %): 260 s
Breaktime ([4]; Run 2-B, A.S. 55%, E.S. 0.97, feed 40, NDA 60 vol. %): 50 s
Breaktime ([4]; Run 3-A, A.S. 55%, E.S. 1.13, feed 60, NDA 40 vol. %): 300 s
Breaktime ([4]; Run 3-B, A.S. 55%, E.S. 1.13, feed 40, NDA 60 vol. %): 40 s
Breaktime ([4]; Run 4-A, A.S. 60%, E.S. 0.51, feed 60, NDA 40 vol. %): 195 s
Breaktime ([4]; Run 4-B, A.S. 60%, E.S. 0.51, feed 40, NDA 60 vol. %): 130 s
Breaktime ([4]; Run 5-A, A.S. 60%, E.S. 0.97, feed 60, NDA 40 vol. %): 160 s
Breaktime ([4]; Run 5-B, A.S. 60%, E.S. 0.97, feed 40, NDA 60 vol. %): 50 s
Breaktime ([4]; Run 6-A, A.S. 60%, E.S. 1.13, feed 60, NDA 40 vol. %): 225 s
Breaktime ([4]; Run 6-B, A.S. 60%, E.S. 1.13, feed 40, NDA 60 vol. %): 50 s
capacity for alcohol removal on decreasing sulfuric acid wt % ([5]; 25° C. and 60° C.): greatly increased
Light Phase SBA ([5]; Run 11-1, 25 °C, AS 50%): 11.69 wt. %
Regenerated Olefin C4=/SBA ([5]; Run 11-1, 25 °C, AS 50%): 0.003 wt:wt
Light Phase SBA ([5]; Run 11-2, 25 °C, AS 60%): 4.57 wt. %
Regenerated Olefin C4=/SBA ([5]; Run 11-2, 25 °C, AS 60%): 0.013 wt:wt
Light Phase SBA ([5]; Run 11-3, 25 °C, AS 67.5%): 1.79 wt. %
Regenerated Olefin C4=/SBA ([5]; Run 11-3, 25 °C, AS 67.5%): 0.165 wt:wt
Light Phase SBA ([5]; Run 11-4, 60 °C, AS 50%): 13.40 wt. %
Regenerated Olefin C4=/SBA ([5]; Run 11-4, 60 °C, AS 50%): 0.060 wt:wt
Light Phase SBA ([5]; Run 11-5, 60 °C, AS 60%): 7.11 wt. %
Regenerated Olefin C4=/SBA ([5]; Run 11-5, 60 °C, AS 60%): 0.049 wt:wt
Light Phase SBA ([5]; Run 11-6, 60 °C, AS 67.5%): 3.55 wt. %
Regenerated Olefin C4=/SBA ([5]; Run 11-6, 60 °C, AS 67.5%): 0.161 wt:wt
regenerated olefin in the light phase, of the alcohol present in the feedstream ([5]; acid strength not greater than about 60% A.S.): less than 5 wt.%
selectivity of extraction [6]: high selectivity for alcohol extraction
wt:wt. ratio H2O/SBA In Upper Layer ([6]; solvent/feed 0.4 (v/v)): 0.077 wt:wt
wt:wt. ratio H2O/SBA In Upper Layer ([6]; solvent/feed 1.0 (v/v)): 0.030 wt:wt
wt:wt. ratio H2O/SBA In Upper Layer ([6]; solvent/feed 1.5 (v/v)): 0.023 wt:wt
wt:wt. ratio H2O/SBA In Upper Layer ([6]; solvent/feed 2.0 (v/v)): 0.038 wt:wt
Light Phase H2O [7, 9]: .12 wt %
Light Phase SBOH [7, 9]: 1.89 wt %
Light Phase H2O [7, 10]: .10 wt %
Light Phase SBOH [7, 10]: 2.49 wt %
Light Phase H2O [7, 11]: .10 wt %
Light Phase SBOH [7, 11]: 2.22 wt %
Light Phase H2O [7, 12]: .09 wt %
Light Phase SBOH [7, 12]: 1.65 wt %
Light Phase H2O [7, 13]: .34 wt %
Light Phase SBOH [7, 13]: 6.68 wt %
Light Phase H2O [7, 14]: .66 wt %
Light Phase SBOH [7, 14]: 6.87 wt %
Light Phase H2O [7, 15]: .47 wt %
Light Phase SBOH [7, 15]: 6.06 wt %
Light Phase H2O [7, 16]: .38 wt %
Light Phase SBOH [7, 16]: 5.15 wt %
extent of removal of water from the alcohol-containing feeds ([7]; sec-butanol/sulfuric acid feeds versus aqueous sec-butanol alone): surprisingly far less
Heavy Phase H2O [8, 17]: 94.56 wt %
Heavy Phase SBOH [8, 17]: 5.44 wt %
Light Phase H2O [8, 17]: 3.02 wt %
Light Phase SBOH [8, 17]: 22.15 wt %
Heavy Phase H2O [8, 18]: 99.06 wt %
Heavy Phase SBOH [8, 18]: 0.94 wt %
Light Phase H2O [8, 18]: 0.63 wt %
Light Phase SBOH [8, 18]: 2.07 wt %
Heavy Phase H2O [8, 19]: 95.09 wt %
Heavy Phase SBOH [8, 19]: 4.91 wt %
Light Phase H2O [8, 19]: 2.59 wt %
Light Phase SBOH [8, 19]: 19.57 wt %
Light Phase H2O [8, 20]: 0.59 wt %
Light Phase SBOH [8, 20]: 2.01 wt %
Heavy Phase H2O [8, 21]: 98.25 wt %
Heavy Phase SBOH [8, 21]: 1.75 wt %
Light Phase H2O [8, 21]: 2.74 wt %
Light Phase SBOH [8, 21]: 10.53 wt %
Heavy Phase H2O [8, 22]: 96.56 wt %
Heavy Phase SBOH [8, 22]: 3.44 wt %
Light Phase H2O [8, 22]: 2.45 wt %
Light Phase SBOH [8, 22]: 20.65 wt %
Heavy Phase H2O [8, 23]: 99.51 wt %
Heavy Phase SBOH [8, 23]: 0.49 wt %
Light Phase H2O [8, 23]: 1.14 wt %
Light Phase SBOH [8, 23]: 2.16 wt %
Heavy Phase H2O [8, 24]: 96.92 wt %
Heavy Phase SBOH [8, 24]: 3.08 wt %
Light Phase H2O [8, 24]: 3.33 wt %
Light Phase SBOH [8, 24]: 19.72 wt %
Heavy Phase H2O [8, 25]: 99.58 wt %
Heavy Phase SBOH [8, 25]: 0.42 wt %
Light Phase H2O [8, 25]: 0.95 wt %
Light Phase SBOH [8, 25]: 1.89 wt %
Substance: neodecanoic acid
solubility of neo-decanoic acid in the heavy phase ([2]; at each acid strength level tested): increases as the ES value of the feed extract increases
amount of butylene regenerated in the upper layer on increasing acid strength ([5]; particularly A.S. greater than about 60%): greatly increased amount of butylene regenerated
